Columns and labels:
[1] = target: T1, Cannabinoid receptor 1 (Homo sapiens, UniProt P21554); assay: Displacement of 3[H]-CP55940 from human recombinant CB1 receptor expressed in HEK293 cell membranes measured after 90 mins by Cheng-Prusoff equation analysis
[2] = target: T1, Cannabinoid receptor 1; assay: Displacement of 3[H]-CP55940 from human recombinant CB1 receptor expressed in HEK293 cell membranes measured after 90 mins

Amino acid sequences for entries named in this document (tags omitted).
UniProt P21554, whole entry: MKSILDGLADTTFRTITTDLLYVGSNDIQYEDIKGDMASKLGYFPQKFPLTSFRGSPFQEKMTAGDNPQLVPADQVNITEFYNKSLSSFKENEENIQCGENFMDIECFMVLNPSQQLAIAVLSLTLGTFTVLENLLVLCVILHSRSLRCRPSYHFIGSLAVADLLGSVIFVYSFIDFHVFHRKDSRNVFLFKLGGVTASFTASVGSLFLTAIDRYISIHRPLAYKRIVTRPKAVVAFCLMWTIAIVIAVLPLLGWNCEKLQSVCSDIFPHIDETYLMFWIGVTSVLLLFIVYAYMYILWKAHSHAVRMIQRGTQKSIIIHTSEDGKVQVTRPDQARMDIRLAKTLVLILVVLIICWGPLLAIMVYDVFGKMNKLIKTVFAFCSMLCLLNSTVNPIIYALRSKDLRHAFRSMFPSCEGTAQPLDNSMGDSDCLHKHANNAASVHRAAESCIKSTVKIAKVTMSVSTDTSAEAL

`Cc1ccc(Cn2nc(C(=O)N[C@@H]3C(C)(C)[C@@H]4CC[C@@]3(C)C4)cc2-c2ccc(Cl)c(C)c2)cc1` was tested, and the Ki [1] was 117 µM and the IC50 [2] was 542 µM.
